Chains of the proteins cited; added tags and fusions are not shown. Lines headed by an entry give the natural chain unless they say otherwise; changes in a name come on top.
UniProt Q9H4B4: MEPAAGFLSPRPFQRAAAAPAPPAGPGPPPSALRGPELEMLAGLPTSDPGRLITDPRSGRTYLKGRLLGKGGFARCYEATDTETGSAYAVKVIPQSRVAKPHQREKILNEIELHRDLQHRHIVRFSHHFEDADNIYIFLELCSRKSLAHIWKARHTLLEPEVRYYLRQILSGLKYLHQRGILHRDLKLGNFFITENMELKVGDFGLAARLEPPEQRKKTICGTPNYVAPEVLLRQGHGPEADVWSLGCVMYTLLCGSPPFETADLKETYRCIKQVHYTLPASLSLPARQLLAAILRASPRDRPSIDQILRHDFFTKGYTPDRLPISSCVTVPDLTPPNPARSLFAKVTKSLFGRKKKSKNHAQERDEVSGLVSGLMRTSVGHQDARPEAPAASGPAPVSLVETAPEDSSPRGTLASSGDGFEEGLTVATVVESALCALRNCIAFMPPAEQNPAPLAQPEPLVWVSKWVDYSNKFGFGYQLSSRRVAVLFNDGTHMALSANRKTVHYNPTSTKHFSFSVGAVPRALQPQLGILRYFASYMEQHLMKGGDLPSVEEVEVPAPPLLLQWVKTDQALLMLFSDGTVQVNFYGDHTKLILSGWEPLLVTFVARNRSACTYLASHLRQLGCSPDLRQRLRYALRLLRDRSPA
UniProt Q9NYY3: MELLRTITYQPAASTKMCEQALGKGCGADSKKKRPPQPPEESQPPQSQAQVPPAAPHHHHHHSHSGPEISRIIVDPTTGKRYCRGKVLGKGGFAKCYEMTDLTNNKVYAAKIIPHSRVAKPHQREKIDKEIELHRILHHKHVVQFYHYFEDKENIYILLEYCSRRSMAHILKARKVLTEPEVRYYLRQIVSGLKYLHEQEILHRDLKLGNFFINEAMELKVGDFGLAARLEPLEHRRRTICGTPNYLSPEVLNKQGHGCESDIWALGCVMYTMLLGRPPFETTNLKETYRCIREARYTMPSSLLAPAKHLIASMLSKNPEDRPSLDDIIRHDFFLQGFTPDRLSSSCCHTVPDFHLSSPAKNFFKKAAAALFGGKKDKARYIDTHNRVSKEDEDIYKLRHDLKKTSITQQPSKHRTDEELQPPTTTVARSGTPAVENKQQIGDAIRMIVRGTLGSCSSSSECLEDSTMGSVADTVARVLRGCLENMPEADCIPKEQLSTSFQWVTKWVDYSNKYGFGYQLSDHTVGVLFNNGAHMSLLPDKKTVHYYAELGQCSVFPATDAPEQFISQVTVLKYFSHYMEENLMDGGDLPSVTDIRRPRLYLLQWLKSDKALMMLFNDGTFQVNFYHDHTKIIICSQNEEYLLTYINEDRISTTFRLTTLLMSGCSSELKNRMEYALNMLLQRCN

According to patent US8148089B2, “Alpha-synuclein kinase” (Elan Pharma International Limited, priority 2006, dated 2012):

Tests used:
[1] = target: T1, over-expressed PLK3 (293) (Homo sapiens, UniProt Q9H4B4); experiment: Synuclein phosphorylation in HEK-293 cells over-expressing synuclein and PLK3; assay type: cell-based; conditions: Table 22
T1 construct: expressed in transfected cells; host or cells: HEK-293 naive cells, CMV-promoter expression vector

PLK2 = PLK2 (Homo sapiens, UniProt Q9NYY3); experiment: Straight biochemical assay: PLK2-driven synuclein phosphorylation in vitro; conditions: Table 19
[2] = target: T2, over-expressed PLK2 (293) (Homo sapiens, UniProt Q9NYY3); experiment: Synuclein phosphorylation in HEK-293 cells over-expressing synuclein and PLK2; assay type: cell-based
T2 construct: expressed in transfected cells; host or cells: HEK-293 naive cells, CMV-promoter expression vector, Lipofectamine 2000

CC[C@@H]1C(=O)N(C)c2cnc(Nc3ccc(C(=O)NC4CCN(C)CC4)cc3OC)nc2N1C1CCCC1 [ELN-481574-2, 4-[[(7r)-8-cyclopentyl-7-ethyl-5,6,7,8-tetrahydro-5-methyl-6-oxo-2-pteridinyl]amino]-3-methoxy-n-(1-methyl-4-piperidinyl)-benzamide]
1: Rank order of potency, Synuclein + PLK3 [1] | Rank order of potency, Straight Biochemical (PLK2) | Rank order of potency, Over-Expressed PLK2 (293) ([2]; Table 19) | Rank order of potency, Synuclein + PLK2 ([2]; Table 22)
